Results as given in US9259452B2, “Deacetylase inhibitor therapy” (Celgene Corporation, priority 2006, dated 2016).

Test: Serum cardiac troponin I and CPK levels prior to and on the day after each dose
Settings: and in 18 cases on the day following those ECGs

C/C=C1\NC(=O)[C@H]2CSSCC/C=C/[C@H](CC(=O)N[C@H](C(C)C)C(=O)N2)OC(=O)[C@H](C(C)C)NC1=O [romidepsin, (1S,4S,10S,16E,21R)-7-[(2Z)-ethylidene]-4,21-diisopropyl-2-oxa-12,13-dithia-5,8,20,23-tetraazabicyclo[8.7.6]tricos-16-ene-3,6,9,19,22-pentanone]
Troponin levels coincident with all ECGs scored as grade 2: within normal limits
